Like-named read-outs stand apart in the source and are kept apart here.
Tests used:
[1] = system: Dengue Virus (Type 2 New Guinea C); assay: Dose response assay, DENV infection of Huh-7.5 cells, DENV envelope protein immunostaining, high-content imaging; assay type: cell-based; settings: MOI 0.5, 48 h post-infection, read-out: IC50 of the anti-viral activity, DENV
Procedure: Huh-7.5 cells (3×10^4 per well) were seeded in black 96-well optical-bottom plates [Nunc] in full growth medium one day prior to infection. After washing with PBS, 40 μl assay medium (5% FBS) was added to cells containing either Laby A1, Laby A2 (final conc. 50, 16.7, 5.56, 1.85, 0.62, 0.21, 0.069 μg/ml) or a combination of Laby A1 and Laby A2 (25, 8.3, 2.8, 0.93, 0.31, 0.10, 0.034 μg/ml each). Treatments were run in doublets. PBS served as a control. After 30 min of incubation, cells were infected with Dengue Virus (Type 2 New Guinea C) at an MOI of 0.5 to give a final volume of 60 μl/well. […]
Fluorescent cells were analyzed by high-content imaging using the automated microscope ImageXpressMicro [Molecular Devices] and the MetaXpress-software. […] The number of total cells/site was determined by automatically counting DAPI-stained nuclei. The percentage of DENV-positive cells was calculated by automatically evaluating the number of Alexa Fluor 488-positive cells in relation to the total cell number. […] IC50-values were calculated by non-linear regression.
To determine a potential synergistic effect of Labyrinthopeptins A1 and A2 on DENV-infection a dose response assay was performed. […] The number of total cells as well as the percentage of Alexa Fluor 488-positive cells (=DENV positive cells) was determined by high-content fluorescence imaging.

[2] = Cell-based HTS system for cytotoxic concentration (CC50), FF-luc HEp-2 cells; settings: 72 h, concentrations up to 100 μM, read-out: half maximal cytotoxic concentration (CC50)
Procedure: Cells (e.g. HEp-2 cells), which stably express the reporter gene of a firefly luciferase (FF-luc), may be seeded in a 96-well plate in media, e.g. in Gibco® Advanced MEM. After 72 h of incubation at 37° C. in the presence of increasing concentrations of the labyrinthopeptin, labyrinthopeptin derivative or combination to be tested (e.g. up to 100 μM), the cells may be lysed and the extinction of the FF-luc (RLU) may be measured. Therefore, a plate luminometer (Berthold) may be used. The number of surviving cells is […] proportional to residual luciferase expression.
A cell-based screening system was used to determine the cytotoxic concentration (CC50) of labyrinthopeptin A1 and A2.
1×10^4 HEp-2 cells, which are stably expressing the reporter gene of a firefly luciferase (FF-luc), were seeded in a 96-well plate in 200 μl appropriate media. After 72 h of incubation at 37° C. in the presence of increasing concentrations of labyrinthopeptin A1 or A2 up to 100 μM, the cells have been lysed in 35 μl lysis buffer and the extinction of the FF-luc (RLU) was measured using a plate luminometer (Berthold). The number of surviving cells is […] proportional to residual luciferase expression.

[3] = system: wild-type RSV (hRSV); settings: read-out: IC50 of the anti-viral activity, RSV; intracellular RSV-P staining, HEp 2 cells, MOI 1, 18 h post infection
[4] = system: human respiratory syncytial virus (RSV); settings: read-out: IC50, inhibition of RSV induced cell death; FF-luc HEp-2 cells, MOI 3, 72 h, indirect assay
[5] = system: KSHV; settings: read-out: IC50 of the anti-viral activity, KSHV; HEK 293 cells, MOI 0.01, 48 h
[6] = system: GFP-expressing CMV (HCMV) strain pHG-1 (HT8-GFP, AD169-based); settings: read-out: IC50 of the anti-viral activity, CMV, NHDF cells, MOI 0.5, GFP at day 4 post infection
[7] = system: ZIKV (Strain MR766-NIID); settings: read-out: IC50 of the anti-viral activity, ZIKV; Huh-7.5 cells, MOI 0.5, 48 h, genome copy equivalents
[8] = system: HCV JcR2a; settings: Huh 7.5 Fluc cells, Renilla luciferase after 48 h
[9] = system: Huh 7.5 Fluc cells; assay: Cell viability (firefly luciferase) in the HCV assay

CC(C)C[C@@H]1NC(=O)[C@]23CSC[C@H](NC(=O)[C@H](C)NC(=O)[C@H](Cc4ccccc4)NC1=O)C(=O)N[C@H](C(=O)O)CSSC[C@H](NC(=O)[C@@H]1CSC[C@]4(C[C@H](N)C(=O)N[C@@H](CC(=O)O)C(=O)N[C@@H](Cc5c[nH]c6ccccc56)C(=O)N4)C(=O)N[C@@H](CC(C)C)C(=O)N[C@@H](Cc4c[nH]c5ccccc45)C(=O)N[C@@H](CCC(=O)O)C(=O)N1)C(=O)N[C@@H](C2)C(=O)N[C@@H]([C@@H](C)O)C(=O)NCC(=O)N3 [LabyA2, Labyrinthopeptin A2]
IC50 [1]: 8 µM
CC50 [2]: > 100 µM
IC50 [3]: 4.97 µM
IC50 [4]: 47.9 µM
IC50 [5]: 15 µM
IC50 [6]: 5.4 µM
IC50 ([6]; listed as Labyrinthopeptin A2): ~5.4 µM
IC50 [7]: 2.81 µM
IC50 ([8]; read-out: IC50 of the anti-viral activity, HCV (virus entry), 4 h inoculation): 1.73 µM
IC90 ([8]; read-out: IC90, inhibition of HCV virus entry): 24.9 µM
cytotoxicity at the tested concentrations in the HCV assay [9]: No cytotoxicity was observed
